Experimental data as given in article PMC9826837.

Biological target: rat cardiac troponin I (cTnI), Ser22/23 bisphosphorylated (rat) (UniProt P23693)
Assay: SEC-MALS

rat cardiac troponin C (cTnC) (from UniProt Q4PP99 1-161) (natural protein)
stoichiometry N: 1
